Data on 1 compound can be found in patent US4960770A, “2-alkyl thieno(triazolo)diazepine compounds and pharmaceutical uses thereof” (Yoshitomi Pharmaceutical Industries, Ltd., priority 1987, dated 1990).

This test concerns PAF-induced lethal shock. The test is described as follows: Effect of PAF-induced lethal shock in mice. The following applies: 1 hour before PAF 80 μg/kg i.v., 24 hours. The class given is in vivo, male ICR mice. The procedure:
The experiment was carried out according to the method of Young et al. described in Prostaglandins, vol. 30, p. 545 (1985). Groups of 9 to 15 male ICR mice (Charles River) weighing 25-30 g were used. 80 μg/kg of PAF (Serdary Research Labo.) solution was intravenously administered in a lateral tail vein 1 hour after the oral administration of test compound (0.1 ml/10 g). […] Results were given as number of survivors/number of employed animals and survival rates (%) in Table 4.

For `CCc1cc2c(s1)-n1c(C)nnc1CN=C2c1ccccc1Cl` [Etizolam, 6-(o-chlorophenyl)-8-ethyl-1-methyl-4H-s-triazolo[3,4-c]thieno[2,3-e][1,4]diazepine, reference compound], the “Number of Survivors/Number of Animals” value runs as follows: (1 mg/kg p.o.) 1/11; (3 mg/kg p.o.) 3/11; (10 mg/kg p.o.) 6/11. The Survival rate is 9.1% (1 mg/kg p.o.), 27.3% (3 mg/kg p.o.) and 54.5% (10 mg/kg p.o.).
